This is an account of results in PMC10449848, “Structural basis of lipid-droplet localization of 17-beta-hydroxysteroid dehydrogenase 13” (Nature Communications, 2023).

Protein sequences, listed by entry. Tags and fused reporters are not part of them. Residues count along the entry.
UniProt Q7Z5P4, 2-300 limits assumed: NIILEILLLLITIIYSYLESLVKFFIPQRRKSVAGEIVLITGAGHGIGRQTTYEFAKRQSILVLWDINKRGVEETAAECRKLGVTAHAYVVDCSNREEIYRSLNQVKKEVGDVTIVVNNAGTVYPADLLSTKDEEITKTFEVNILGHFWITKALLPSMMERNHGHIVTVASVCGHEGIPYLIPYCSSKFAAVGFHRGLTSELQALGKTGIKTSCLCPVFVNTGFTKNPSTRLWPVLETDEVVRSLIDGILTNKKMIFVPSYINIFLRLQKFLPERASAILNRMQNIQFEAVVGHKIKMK

Where “and” joins values, the source holds several entries; their conditions need not be identical. Equal entries are not always repeated.

In this test the target is human HSD17B13 (Homo sapiens, UniProt Q7Z5P4). Kind of test: Thermal shift assay (static light scattering, Tagg), human HSD17B13. The following applies: for deltaTagg: 500 uM NAD, Tagg(compound + NAD+) - Tagg(buffer + NAD+); for dTagg: no NAD, vs buffer; for Tagg, individual measurements: 10.4 µM protein. Format: binding.

For `Cc1ccccc1OC[C@H]1CC[C@@](O)(CNC(=O)c2ccc(O)cc2)CC1` (relative stereo), where the note is “100 µM ligand”, the deltaTagg amounted to 5.8 and the dTagg stood at 0.5833.
With `O=C(NC[C@]1(O)CC[C@H](CCOc2ccccc2)CC1)c1ccc(O)c(F)c1` (relative stereo), the “Tagg, individual measurements” value runs as follows: (100 µM ligand + 500 µM NAD+) 53.5 °C (2×) and 53.7 °C and 52.7 °C; (100 µM ligand, buffer without NAD+) 40.1 °C and 40.3 °C and 41.8 °C (2×). For the same molecule, the deltaTagg (100 µM ligand) amounted to 11.7. Moreover, the dTagg (100 µM ligand) is 0.9333.
Turning to `O=C(NC[C@]1(O)CC[C@H](COCc2ccccc2)CC1)c1ccc(O)c(F)c1` (relative stereo), the “Tagg, individual measurements” value (100 µM ligand + 500 µM NAD+) was 52.9 °C (2×) and 52 °C and 52.8 °C. Moreover, for the setting “100 µM ligand”, the deltaTagg was 11 and the dTagg was found to be 1.858.
